Assay: Depth of permeation of fluorescently tagged molecules in plasma-treated porcine skin (plasmaporation)
Assay type: in vitro ADME
Experimental: A number of experiments were conducted and the experimental results and procedures were based on plasma treatment of porcine skin to transport dextran molecules tagged with fluorescent dyes, or proteins tagged with fluorescent dyes or nanoparticles tagged with fluorescent dyes through layers of the skin.
Porcine skin with intact stratum corneum (SC) from back of the ear and abdomen were used, which included both full thickness (non-fleshed) and split thickness (fleshed) skin. The skin was kept at −80° C. until the day of treatment. On the day of treatment the skin was thawed to room temperature and kept in a humidified box for 1 hour. Prior to plasma application the hair was removed with a hair clipper and the skin was shaved. The skin was washed with soap and pat-dried with paper towels. The skin from back of the ear was cut in to 1″×1″ pieces and the skin from the abdomen was cut in to 2″×2″ pieces. The pieces of skin were kept in a humidified box on wet paper towels to maintain constant humidity.
Lysine fixable fluorescently tagged dextran molecules having molecular weights of 3, 10, 40 and 70 kDa were also used. […]
After treatment, 5-10 mm punch biopsies were obtained from control samples and plasma treated samples. […] Morphological analysis and depth of permeation analysis was carried out on an EVOS inverted fluorescence enabled microscope (AMG Microscope). […]

With “albumin: albumin (66 kDa) tagged with green fluorescence” the “depth up to which predominately localized in the epidermis” value was 75-100 μm.

— US20160089545A1, “METHODS AND APPARATUS FOR DELIVERY OF MOLECULES ACROSS LAYERS OF TISSUE” (EP Technologies LLC, priority 2013, published 2016)
